This assay deals with T1, Fructose-1,6-bisphosphatase 1 (Homo sapiens, UniProt P09467).
T1 sequence (P09467 whole entry): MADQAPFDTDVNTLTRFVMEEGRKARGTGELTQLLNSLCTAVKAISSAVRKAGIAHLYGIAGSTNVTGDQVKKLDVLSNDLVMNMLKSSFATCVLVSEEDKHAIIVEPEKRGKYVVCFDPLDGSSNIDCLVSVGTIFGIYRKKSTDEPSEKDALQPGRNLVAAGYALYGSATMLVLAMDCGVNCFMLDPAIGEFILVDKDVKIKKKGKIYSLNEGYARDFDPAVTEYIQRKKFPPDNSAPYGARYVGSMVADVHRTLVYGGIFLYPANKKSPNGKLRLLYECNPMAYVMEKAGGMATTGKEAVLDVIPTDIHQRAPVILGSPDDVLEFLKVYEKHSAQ
Nature of the assay: Inhibition of human liver fructose-1,6-bisphosphatase.

For orientation: IC50 means the concentration at which inhibition is half-maximal. The low end stands for greater potency in that assay, the high end for weaker potency in that assay. Compound `O=C(NCCCCCCCNC(=O)NS(=O)(=O)c1cccc(Cl)c1)NS(=O)(=O)c1cccc(Cl)c1` displayed an IC50 of 9 nM.

For the origin of these results see ChEMBL document CHEMBL1155936, “Allosteric FBPase inhibitors gain 10(5) times in potency when simultaneously binding two neighboring AMP sites” (Bioorg Med Chem Lett, 2008).
